We go through 3 molecules from PubChem BioAssay AID1645851 (National Center for Advancing Translational Sciences (NCATS), 2021).

Protein sequences, listed by entry. Tags and fused reporters are not part of them.
UniProt Q92551, whole entry: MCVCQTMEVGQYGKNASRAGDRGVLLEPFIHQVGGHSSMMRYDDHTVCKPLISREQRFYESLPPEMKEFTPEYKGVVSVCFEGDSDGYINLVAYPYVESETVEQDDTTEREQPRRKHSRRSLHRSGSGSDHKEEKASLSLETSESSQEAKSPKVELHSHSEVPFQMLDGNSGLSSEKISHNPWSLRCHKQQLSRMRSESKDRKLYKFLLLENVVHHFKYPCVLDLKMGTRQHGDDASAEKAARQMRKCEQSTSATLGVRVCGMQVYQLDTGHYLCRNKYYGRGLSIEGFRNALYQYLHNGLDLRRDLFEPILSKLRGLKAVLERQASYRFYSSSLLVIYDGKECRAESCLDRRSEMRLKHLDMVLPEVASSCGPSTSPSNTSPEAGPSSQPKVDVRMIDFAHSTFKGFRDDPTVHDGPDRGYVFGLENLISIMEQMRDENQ

This is a selection; strong and weak results do not stand in their true shares. The source made the active and inactive calls. Cut-off read from the data, not from the text of the source: active = activity change below about -25%; inactive = the rest.
% is set by controls: 0 for no effect and ±100 for the full control effect.

For the assay, the target named is Inositol hexakisphosphate kinase 1 (Homo sapiens) (UniProt Q92551). Description: Primary qHTS assay for small molecule inhibitors of Inositol hexaphosphate kinase 1 (IP6K1). Note: series mostly up to about 58 µM. The conditions noted are these: ADP-Glo luminescence, 2 h, hits give low values. From the text:
Assay Provider: Huijun Wei, M.S., Ph.D. School of Medicine, Johns Hopkins University, Baltimore, MD Inositol hexakisphosphate kinases (IP6Ks) catalyze pyrophosphorylation of inositol hexakisphosphate (IP6) into inositol 5-diphospho-1,2,3,4,6-pentakisphosphate (IP7), which is involved in numerous areas of cell physiology including glucose homeostasis, blood coagulation and neurological development. Inhibition of IP6Ks may be effective for the treatment of Type II diabetes, thrombosis, and psychiatric disorders. We performed a quantitative high throughput screen (qHTS) of 158,410 compounds for IP6K1 inhibitors using ankinase activity ADP-Glo Max assay. […] Medicinal chemistry SAR efforts in three chemical series identified potent IP6K1 inhibitors, which were further validated in an orthogonal LC-MS IP7 analysis.
PROTOCOL TABLE SEQUENCE No. (e.g., 1, 2, 3, etc.); […] (e.g., Cells, Incubation, Reagent, etc.); VALUE and DESCRIPTION. 1. Reagent, 3 uL of 1.3 mM ATP and 130 uM IP6 mixture in assay buffer was dispensed to a white, 1536-well assay plate. 2. Compound, 23 nL of compounds of the top two doses (57.5 uM and 19.1 uM final concentration) of the libraries were dispensed into the mixture using the Kalypsis pintool. 3. Reagent, 1 uL of 2.4 uM IP6K1 was dispensed to the assay plates. 4. Incubation, 2 hr incubation at room temperature. 5. Reagent, 2 uL of ADP-Glo reagent was added to the wells. 6. Incubation, 1 hr incubation at room temperature. 7. Reagent, 4 uL or ADP-Glo substate was added to the wells. 8. Incubation, 45 min incubation at room temperature. 9. Detection, luminescence signal was detected using the ViewLux microplate imager (PerkinElmer).
For `CN(CCCl)CCCl`, the activity change was inactive: 5.69%.
`CCC(=O)N(c1ccccc1)C1(COC)CCN(CCn2nnn(CC)c2=O)CC1`: the activity change is inactive: -10.9%.
Regarding `CCC(=O)N(c1ccccc1)C1(COC)CCN(CCc2cccs2)CC1`, the activity change was inactive: -24.4%.
